This is an account of results in patent publication US11771083B2, “Flower thinning composition and flower thinning method using same” (priority 2018, dated 2023).

Like-named read-outs stand apart in the source and are kept apart here.

Data set [1] relates to honeybees. In words: Honeybee toxicity test depending on spray concentration of formulations (Test Example 6). Type of data set: in vivo. Conditions: 96 hours.
Data set [2] relates to honeybees. In words: Acute contact toxicity to honeybees, active ingredients in acetone (Test Example 4). Conditions: treatment dose 50 μg per honeybee in acetone; 72 hours after treatment. Type of data set: in vivo.
Data set [3] relates to honeybees. The conditions noted are these: active ingredient dissolved in acetone; treatment dose 100 μg.

Take `CCCCCCCCCCO` [1-Decanol, 1-decanol]: the “Lethargy + lethality (%)” value with honeybees [1] (spray concentration 0.2%) stood at 33.3%; with honeybees [1] (spray concentration 0.4%), 43.3%. Turning to `CCCCCCCCO` [1-Octanol, 1-octanol], the “Lethality (%)” value in the data set on honeybees [2] worked out at 26.7%. In addition, the “Lethargy + lethality (%)” value with honeybees [1] (spray concentration 0.2%) and with honeybees [1] (spray concentration 0.4%) was 13.3% throughout. For the molecule `CCCCCCCCCC(=O)O` [1-decanoic acid, reference compound], in the data set with honeybees [2], the “Lethality (%)” value amounted to 43.3%. Regarding `CCCCCCCO` [1-heptanol], the “Lethality (%)” value in the data set on honeybees [3] is listed as 33.3%.

On to `OC1CCCCC1` [Cyclohexanol, cyclohexanol], for which, in the data set on honeybees [3], the “Lethality (%)” value came out at 33.3%.
